Reference: patent US9056923B2, “Mimetic peptides derived from collagen type IV and their use for treating angiogenesis- and lymphagiogenesis-dependent diseases” (THE JOHNS HOPKINS UNIVERSITY, priority 2010, dated 2015)

Columns and labels:
Type in all cases: cell-based, human
HUVEC [1] = assay: HUVEC migration assay (RT-CIM); details: for Migration Inhibition (50 uM): 50 uM peptide; for Activity in Migration: Yes/No summary, active = inhibitory potential greater than 30%; for inhibition of migration: concentration not given
Description: The inhibitory potential of the peptides was measured using a real time migration assay system based on electrical impedance (RT-CIM, ACEA Biosciences, CA). CIM 16 well plates (Roche, 05665817001) are composed of a top and bottom chamber separated by a microporous (8 μm) polycarbonate membrane. The membrane was coated with fibronectin (20 μg/mL), and 45,000 cells/well in serum free media with or without peptides were added to the top compartment. Media with chemoattractant (i.e., fully supplemented EBM-2) was added to the bottom compartment of the chamber and the plate was incubated at 37° C. for 20 hours. The sensors integrated on the bottom side of the membrane monitor and continuously record changes in impedance as the cells move through the membrane. The RT-CIM technology allows for easy quantification of cell migration by monitoring the cell index derived from the measured impedances. Assays were performed in at least two independent replicates and each replicate was performed using two experimental duplicates.

HUVEC [2] = details: for Adhesion Inhibition (100 uM): 100 uM peptide; for Activity in Adhesion: Yes/No summary, active = inhibitory potential greater than 30%; for inhibition of adhesion: concentration not given
Description: Similar to the migration assays, the inhibition activity of the peptide in cellular adhesion was assessed using the RT-CIM technology. In this case, 25,000 cells/well were plated in 16 wells E-plates (Roche, Basel Switzerland) in the presence or absence of the peptide. The adhesion was monitored over time (3 hours) by measuring changes in the electrical impedance, which is a direct measure of the cells adhering on the electrodes. […] Assays were performed in at least two independent replicates and each replicate was performed using two experimental duplicates.

HUVEC [3] = details: for inhibition of proliferation / Activity in Proliferation / Proliferation Inhibition (IC50 in uM): HUVEC; for Activity in Proliferation: Yes/No summary; for Proliferation Inhibition (IC50 in uM): summary tables 2-4, 6, 7
Description: Several assays were used to test the peptides discussed in the Examples herein. A colorimetric based proliferation assay using WST-1 (Roche, 11644807001) proliferation reagent was carried out using HUVEC cells. 2000 cells/well were plated in 96-well plates and allowed to adhere overnight. On the following day, the media was exchanged with fully supplemented media containing peptides or equivalent DMSO vehicle for the controls. Three days later the media containing the peptides was replaced with serum-free EBM-2 media containing WST-1 reagent and the plates were incubated for four hours as per the manufacturer's recommendations. Changes in color, due to the formazan dye resulted from the cleavage of the tetrazolium salt WST-1 by the mitochondrial succinate-tetrazolium reductase, were read on a Victor V fluorescence plate reader (Perkin Elmer, MA) by measuring the absorbance at 450 nm Dose response curves of percent live cells (in comparison to untreated cells but incubated in complete media with 0.2% DMSO) were created. Assays were performed in at least two independent replicates and each replicate was performed using three experimental triplicates.

HUVEC [4] = assay: HUVEC tube formation assay on Matrigel; details: for Tube formation Inhibition (100 uM): 100 uM peptide; for Activity in Tube formation: Yes/No summary; for inhibition of tube formation (FIG. 20): high dose, 100 nM
Description: The compounds also were tested for their ability to inhibit tube formation, a process critical in angiogenesis. Endothelial cells spontaneously form a network of tubes when plated on extracts of extracellular matrix. This in vitro assay combines aspects of adhesion and migration and it is routinely used in angiogenesis research (Oliveira-Ferrer et al., 2008). The ability to inhibit tube formation is a comprehensive assessment of the anti-angiogenic potential. The protocol was described by Arnaoutova et al. (2009) and it consists of plating HUVEC on top of basement membrane extract and after incubation at 37° C. the cells naturally rearrange themselves in a network of tubes. Thus, 50 μL/well of Matrigel (BD Biosciences, San Jose, Calif.) was plated in a cold 96 well plate and incubated at 37° C. for 30 min for polymerization. 15,000 cells/well were added to the top of the gel and incubated in complete media in the presence or absence of peptide for 19 hours. Images were captured using the CCD Sensicam mounted on a Nikon microscope (Eclipse T-100). Assays were performed in at least two independent replicates and each replicate was performed using three experimental replicates and one image of a randomly chosen field was acquired per well.

| Structure (SMILES) | Migration Inhibition (50 uM) (HUVEC [1]) | Activity in Migration (HUVEC [1]) | Adhesion Inhibition (100 uM) (HUVEC [2]) | Activity in Adhesion (HUVEC [2]) | IC50 (HUVEC [3]) [µM] | inhibition of proliferation (HUVEC [3]) | Activity in Proliferation (HUVEC [3]) | Proliferation Inhibition (IC50 in uM) (HUVEC [3]) | Tube formation Inhibition (100 uM) (HUVEC [4]) | Activity in Tube formation (HUVEC [4]) | inhibition of tube formation (FIG. 20) (HUVEC [4]) | inhibition of migration (HUVEC [1]) | inhibition of adhesion (HUVEC [2]) |
| --- | --- | --- | --- | --- | --- | --- | --- | --- | --- | --- | --- | --- | --- |
| CC[C@H](NC(=O)[C@@H](NC(=O)[C@H](CC(N)=O)NC(=O)[C@H](CC(N)=O)NC(=O)[C@@H](NC(=O)[C@H](CC(N)=O)NC(=O)[C@H](CC)NC(=O)[C@@H](N)Cc1ccccc1)[C@@H](C)CC)C(C)C)C(=O)N[C@@H](CC(N)=O)C(N)=O [SP2020, FAbuNINNVAbuN] | 31.89% | Yes | 84.4% | Yes | 9.8 ± 4.6 | active | Yes | Inactive | complete inhibition of tube formation | Yes | active | – | – |
| CC[C@H](NC(=O)[C@@H](N)Cc1ccccc1)C(=O)N[C@@H](CC(N)=O)C(=O)N[C@H](C(=O)N[C@@H](CC(N)=O)C(N)=O)[C@@H](C)CC [SP2021, FAbuNIN] | Inactive | No | 0% | No | – | less active | No | Inactive | Inactive | No | inactive | inactivation | inactivation |
| CC[C@H](NC(=O)[C@@H](N)Cc1ccccc1)C(=O)N[C@@H](CC(N)=O)C(=O)N[C@H](C(=O)N[C@@H](CC(N)=O)C(=O)N[C@H](C(N)=O)C(C)C)[C@@H](C)CC [SP2030, FAbuNINV] | −9.5% | No | 0% (−1.35%) | No | 144 | less active | No | – | Inactive | No | – | inactivation | inactivation |
